Test results from patent publication US5096884A, “Glidobactin PF-1 peptide antibiotics” (Bristol-Myers Squibb Company, priority 1990, dated 1992).

Test system: B16 Melanoma (ip)
Details: B16, 0.063 mg/kg/day, QD1→9, ≥125% significant
Protocol: In vivo antitumor activity of glidobactin PF-1 was determined in experimental mouse tumor systems. Female CDF1 and male BDF1 mice were intraperitoneally inoculated with 0.4 mL of diluted ascitic fluid containing 10^6 lymphocytic leukemia P388 cells and 0.5 mL of 10% melanotic melanoma B16 brei, respectively. Test compounds were intraperitoneally administered daily for 9 days starting from 1 day after the tumor implantation.

SMILES: CO[C@@]12[C@H](COC(N)=O)C3=C(C(=O)C(C)=C(N)C3=O)N1C[C@@H]1N[C@@H]12 [Mitomycin C]
- T/C % of MST: 100%
